Amino acid sequences for entries named in this document (tags omitted). Residues count along the entry.
UniProt G7CES0, 29-471 N45T/E46D: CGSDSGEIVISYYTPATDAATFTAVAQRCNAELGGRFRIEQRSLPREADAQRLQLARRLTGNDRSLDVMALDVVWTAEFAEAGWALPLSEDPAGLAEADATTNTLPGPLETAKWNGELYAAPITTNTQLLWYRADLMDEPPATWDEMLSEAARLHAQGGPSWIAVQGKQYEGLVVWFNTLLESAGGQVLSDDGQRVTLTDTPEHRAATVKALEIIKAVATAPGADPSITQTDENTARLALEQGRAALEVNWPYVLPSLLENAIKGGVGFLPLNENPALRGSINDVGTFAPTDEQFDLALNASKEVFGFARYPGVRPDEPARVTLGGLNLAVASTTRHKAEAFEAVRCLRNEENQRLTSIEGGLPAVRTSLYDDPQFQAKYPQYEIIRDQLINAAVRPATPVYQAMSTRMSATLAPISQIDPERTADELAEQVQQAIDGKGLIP

According to PMC7949145 (The Journal of Biological Chemistry, 2021):

Target: Mtr LpqY Asn25Thr-Glu26Asp (Mycolicibacterium thermoresistibile, UniProt G7CES0, E46D/N45T)
Experiment: biochemical
Type: binding, Mycobacterium thermoresistible

`OC[C@H]1O[C@H](O[C@H]2O[C@H](CO)[C@@H](O)[C@H](O)[C@H]2O)[C@H](O)[C@@H](O)[C@@H]1O` [Trehalose, α-D-glucopyranosyl-α-D-glucopyranoside] was tested, and the Kd was 23.4 ± 0.5 µM.
